Tested on: rat pooled liver microsomes

## CC(NC(C)(C)C)C(=O)c1cccc(Cl)c1 (stereo not shown) [Bupropion, bupropion]
  decrease of carvedilol metabolisation rate: 14.5%

Reference: publication PMC6510361 (Medicine and Pharmacy Reports, 2019)
